Values of other authors in patent US20090220503A1, “METHOD FOR TREATING CANCERS WITH INCREASED RAS SIGNALING” (THE TRUSTEES OF BOSTON UNIVERSITY, priority 2006, published 2009).

Columns and labels:
PKCα = PKCα (Homo sapiens, UniProt P17252); conditions: cited from earlier work
PKA = conditions: cited from earlier work

Balanol
δ > α: Ratio of IC50 for PKCδ to IC50 PKCα (PKCα): 9x | δ > PKA: Ratio of IC50 for PKCδ to IC50 PKA (PKA): 12x
